# Values quoted from earlier work in publication PMC10112232, “Comparison of Toxicities among Different Bumped Kinase Inhibitor Analogs for Treatment of Cryptosporidiosis” (Antimicrobial Agents and Chemotherapy, 2023).
# Settings: cited from earlier work
structure (smiles),measurement,setting,value
CCOc1ccc2cc(-c3nn(C(C)(C)CCO)c(N)c3C(N)=O)ccc2c1 [BKI-1770],Solubility at pH 2,pH 2,75 μM
same,Solubility at pH 6.5,pH 6.5,60.2 μM
